Earlier results as cited in patent publication US12472150B2, “Delivery system comprising silicon-containing material” (SISAF LIMITED, priority 2019, dated 2025).

Conditions: room temperature

## Orthosilicic acid [OSA]
  Concentration at which OSA is stable in water (solubility limit of the amorphous phase): below 2 mM
